Values belong to the compound of their own block, whether it stands above or below them.
Tests used:
[1] = in vitro; type: cell-based; conditions: human
Method: (§1) N-Ac-CHAVC-NH2 (SEQ ID NO:10) and the control peptide N-Ac-CHGVC-NH2 (SEQ ID NO:20) were evaluated for possible cytotoxic effects on human microvascular endothelial (HMVEC; Clonetics), human umbilical vein endothelial (HUVEC; ATCC #CRL-1730), IAFp2 (human fibroblast cell line; Institute Armand-Frapier, Montreal, Quebec), WI-38 (human fibroblast cell line; ATCC #CCL-75), MDA-MB231 (human breast cancer cell line; ATCC #HTB-26), and PC-3 (human prostate cancer cell line; ATCC #CRL-1435) cells utilizing the MTT assay (Plumb et al., Cancer Res. 49:4435-4440, 1989). Neither of the peptides was cytotoxic at concentrations up to and including 100 μM. Similarly, neither of the peptides was capable of inhibiting the proliferation of the above cell lines at concentrations up to 100 μM, as judged by ^3H-thymidine incorporation assays.

[2] = in vitro; type: cell-based; conditions: human; remark: listed apart in the source
Method: as §1

[3] = system: angiogenesis in chick embryonic chorioallantoic membranes; assay: Chick chorioallantoic membrane angiogenesis assay; type: in vivo; conditions: 24 hours
Method: The chick chorioallantoic membrane assay was used to assess the effects of cyclic peptides on angiogenesis (Iruela-Arispe et al., Molecular Biology of the Cell 6:327-343, 1995). Cyclic peptides were embedded in a mesh composed of vitrogen at concentrations of 3, 17, and 33 μg/mesh. The meshes were then applied to 12-day-old chick embryonic chorioallantoic membranes. After 24 hours, the effects of the peptides on angiogenesis were assessed by computer assisted morphometric analysis.
For each concentration of cyclic peptide, the percent inhibition of angiogenesis (relative to the level of angiogenesis in the absence of cyclic peptide) is provided. Assays were performed in the presence (+) or absence (−) of […] VEGF. For example, the cyclic peptide N-Ac-CHAVC-NH2 (SEQ ID NO:10) inhibited angiogenesis by 46%, 51%, and 51% at concentrations of 3, 17, and 33 μg/mesh, respectively.

[4] = Stability of cyclic peptide in mouse whole blood; type: in vitro ADME; conditions: 37° C.
Method: 50 μl of a stock solution containing 12.5 μg/ml H-CHAVC-NH2 (SEQ ID NO:10) was added to mouse whole blood and incubated at 37° C. Aliquots were removed at intervals up to 240 minutes, precipitated with acetonitrile, centrifuged and analyzed by HPLC.

[5] = target: T1, chick N-cadherin (Gallus gallus, UniProt P10288); assay: N-cadherin dependent neurite outgrowth of rat cerebellar neurons on N-cadherin expressing 3T3 cells (Example 14); type: cell-based; conditions: NIH3T3; 250 μg/mL, 16-18 hours
T1 construct: expressed in transfected cells; host or cells: 3T3 fibroblasts
T1 sequence (P10288 165-912): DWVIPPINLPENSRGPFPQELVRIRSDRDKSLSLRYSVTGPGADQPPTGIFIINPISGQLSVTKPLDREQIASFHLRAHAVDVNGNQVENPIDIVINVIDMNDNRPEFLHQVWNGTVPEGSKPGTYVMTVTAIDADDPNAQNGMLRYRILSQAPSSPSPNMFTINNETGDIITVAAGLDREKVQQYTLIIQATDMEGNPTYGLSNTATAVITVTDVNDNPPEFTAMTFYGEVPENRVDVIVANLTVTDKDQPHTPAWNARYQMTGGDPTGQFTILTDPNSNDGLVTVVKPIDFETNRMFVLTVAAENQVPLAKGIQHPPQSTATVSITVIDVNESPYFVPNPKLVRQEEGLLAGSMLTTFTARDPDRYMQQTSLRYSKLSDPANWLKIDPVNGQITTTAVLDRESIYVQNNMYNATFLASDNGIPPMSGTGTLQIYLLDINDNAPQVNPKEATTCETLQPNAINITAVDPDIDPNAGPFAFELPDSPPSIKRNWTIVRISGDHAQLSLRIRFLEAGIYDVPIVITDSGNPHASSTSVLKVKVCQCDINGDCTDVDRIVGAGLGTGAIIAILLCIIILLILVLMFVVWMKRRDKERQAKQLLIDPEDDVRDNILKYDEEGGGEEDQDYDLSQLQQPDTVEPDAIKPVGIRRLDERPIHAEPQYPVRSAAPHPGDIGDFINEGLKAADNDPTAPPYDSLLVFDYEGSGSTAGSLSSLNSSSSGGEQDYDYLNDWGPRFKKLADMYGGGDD
Method: Cell culture and neurite outgrowth assays. Co-cultures of cerebellar neurons on monolayers of control 3T3 cells and monolayers of transfected 3T3 cells that express physiological levels of chick N-cadherin or human L1 were established as previously described (Williams et al., Neuron 13:583-594, 1994). In brief, 80,000 3T3 cells (control and transfected) were plated into individual chambers of an eight-chamber tissue culture slide coated with polylysine and fibronectin and cultured in DMEM/10% FCS. After 24 hours, when confluent monolayers had formed, the medium was removed and 3000 cerebellar neurons isolated from post-natal day 2-3 rats were plated into each well in SATO media (Doherty et al., Nature 343:464-466, 1990) supplemented with 2% FCS. All of the test peptides were added immediately before the neurons as a 2×stock prepared in SATO/2% FCS. […] The mean length of the longest neurite per cell was measured for 150-200 neurons sampled in replicate cultures as previously described (Williams et al., Neuron 13:583-594, 1994). […] Dose-response curves were evaluated and the EC50 values determined.
Effects of cyclic HAV peptides on N-cadherin function. […] The cells were then fixed and the length of the longest neurite on 150-200 neurons was determined by standard assay, as described above. […]

[6] = Chronic toxicity study in mice; type: in vivo; conditions: after the four day recovery period
Method: Varying amounts of H-CHAVC-NH2 (SEQ ID NO:10; 2 mg/kg, 20 mg/kg and 125 mg/kg) were injected into mice intraperitoneally every day for three days.

[7] = in vitro; type: cell-based; conditions: human; remark: listed apart in the source
Method: as §1

[8] = system: bovine pulmonary artery endothelial cells; assay: Disruption of bovine endothelial cell adhesion; type: cell-based; conditions: 500 μg/ml, 30 minutes
Method: For use within one such assay, bovine pulmonary artery endothelial cells may be harvested by sterile ablation and digestion in 0.1% collagenase (type II; Worthington Enzymes, Freehold, N.J.). Cells may be maintained in Dulbecco's minimum essential medium supplemented with 10% fetal calf serum and 1% antibiotic-antimycotic at 37° C. in 7% CO2 in air. Cultures may be passaged weekly in trypsin-EDTA and seeded onto tissue culture plastic at 20,000 cells/cm^2. Endothelial cultures may be used at 1 week in culture, which is approximately 3 days after culture confluency is established. The cells may be seeded onto coverslips and treated (e.g., for 30 minutes) with modulating agent or a control compound at, for example, 500 μg/ml and then fixed with 1% paraformaldehyde. As noted above, disruption of cell adhesion may be determined visually within 24 hours, by observing retraction of the cells from one another. This assay evaluates the effect of a modulating agent on N-cadherin mediated cell adhesion.
Bovine pulmonary artery endothelial cells were harvested by sterile ablation and digestion in 0.1% collagenase (type II; Worthington Enzymes, Freehold, N.J.). Cells were maintained in Dulbecco's […] essential medium (Clonetics, San Diego, Calif.) supplemented with 10% fetal calf serum (Atlantic Biologicals, Nor cross, Ga.) and 1% antibiotic-antimycotic at 37° C. in 7% CO2 in air. […]

[9] = in vitro; type: cell-based; conditions: human; remark: listed apart in the source
Method: as §1

IC50 [1]: > 100 µM
IC50 [2]: > 100 µM
remaining at 10 min ([4]; 10 min): 98.9%
remaining at 20 min ([4]; 20 min): 86.7%
remaining at 0.5 h ([4]; 30 min): 113%
remaining at 0.75 h ([4]; 45 min): 110%
remaining at 1 h ([4]; 60 min): 95.5%
remaining at 1.5 h ([4]; 90 min): 111%
remaining at 2 h ([4]; 120 min): 68.1%
remaining at 4 h ([4]; 240 min): 78.9%
inhibition at 250 µg/mL [5]: 1.7 ± 1.1%
IC50 [7]: > 100 µM
IC50 [9]: > 100 µM
SMILES: CC(C)[C@@H]1NC(=O)[C@H](C)NC(=O)[C@H](Cc2c[nH]cn2)NC(=O)[C@@H](N)CSSC[C@@H](C(N)=O)NC1=O [H-CHAVC-NH2]
percent inhibition of angiogenesis ([3]; 3 μg/mesh, absence (−) of 0.01 mM VEGF): 11%
percent inhibition of angiogenesis ([3]; 3 μg/mesh, presence (+) of 0.01 mM VEGF): 27%
percent inhibition of angiogenesis ([3]; 17 μg/mesh, absence (−) of 0.01 mM VEGF): 13%
percent inhibition of angiogenesis ([3]; 17 μg/mesh, presence (+) of 0.01 mM VEGF): 34%
percent inhibition of angiogenesis ([3]; 33 μg/mesh, absence (−) of 0.01 mM VEGF): 17%
percent inhibition of angiogenesis ([3]; 33 μg/mesh, presence (+) of 0.01 mM VEGF): 35%
autopsy findings [6]: no abnormalities were observed
effect on endothelial cell monolayer / morphology [8]: had no effect on endothelial cell morphology

IC50 [1]: > 100 µM
IC50 [2]: > 100 µM
inhibition at 250 µg/mL [5]: 7.8 ± 7.1%
IC50 [7]: > 100 µM
IC50 [9]: > 100 µM
SMILES: CC(C)[C@@H]1NC(=O)CNC(=O)[C@H](Cc2c[nH]cn2)NC(=O)[C@@H](N)CSSC[C@@H](C(N)=O)NC1=O [H-CHGVC-NH2, reference compound]
